Consider one molecule from ChEMBL document CHEMBL5050846 (2020).

Series [1] in a line: in vivo. To be noted: dog, iv, 3 mg/kg.
A short description of series [2]: in vivo. To be noted: dog, iv.

Take `CC(C)c1ccc(CC(=O)N[C@H](C)c2ccc(OCC(F)(F)F)cn2)cc1` [SUVECALTAMIDE]: the concentration in “in vivo [1]” peaked (Cmax) at 22 µM. Further, the AUC – broadly, the area under the concentration-time curve, a measure of exposure – in “in vivo [2]” was found to be 11.3 µM·h.
